Experimental data: PMC12102759 (Protein Science : A Publication of the Protein Society, 2025)

System: MDM2 SWIB
Assay type: binding, human
Conditions: library DMS-BM; bait MDM2 SWIB; prey TP53; peptide QETFSDLWKLLPENNV; columns = wild-type residues Q1-N15, rows = amino acid at that position

Sequence	DMS PSSM value (position-specific score of the amino acid at the position; each column sums to 1)
QETFSDLWKLLPENNV E2G (QGTFSDLWKLLPENNV)	0
QETFSDLWKLLPENNV E2H (QHTFSDLWKLLPENNV)	0.007957
QETFSDLWKLLPENNV E2I (QITFSDLWKLLPENNV)	0.004276
QETFSDLWKLLPENNV E2K (QKTFSDLWKLLPENNV)	0
QETFSDLWKLLPENNV E2L (QLTFSDLWKLLPENNV)	0.1129
QETFSDLWKLLPENNV E2M (QMTFSDLWKLLPENNV)	0.03298
QETFSDLWKLLPENNV E2N (QNTFSDLWKLLPENNV)	0.04907
QETFSDLWKLLPENNV E2P (QPTFSDLWKLLPENNV)	0.02506
QETFSDLWKLLPENNV E2Q (QQTFSDLWKLLPENNV)	0.01193
QETFSDLWKLLPENNV E2R (QRTFSDLWKLLPENNV)	0
QETFSDLWKLLPENNV E2S (QSTFSDLWKLLPENNV)	0.01193
QETFSDLWKLLPENNV E2T (QTTFSDLWKLLPENNV)	0.1453
QETFSDLWKLLPENNV E2V (QVTFSDLWKLLPENNV)	0.04525
QETFSDLWKLLPENNV E2W (QWTFSDLWKLLPENNV)	0.123
QETFSDLWKLLPENNV E2Y (QYTFSDLWKLLPENNV)	0.00323
QETFSDLWKLLPENNV E13A (QETFSDLWKLLPANNV)	0.005646
QETFSDLWKLLPENNV E13D (QETFSDLWKLLPDNNV)	0.1152
QETFSDLWKLLPENNV E13E	0.01464
QETFSDLWKLLPENNV E13F (QETFSDLWKLLPFNNV)	0.001225
QETFSDLWKLLPENNV E13G (QETFSDLWKLLPGNNV)	0.00182
QETFSDLWKLLPENNV E13H (QETFSDLWKLLPHNNV)	0.3013

Sequence	DMS PSSM value (position-specific score of the amino acid at the position; each column sums to 1)
QETFSDLWKLLPENNV E13I (QETFSDLWKLLPINNV)	0.01409
QETFSDLWKLLPENNV E13K (QETFSDLWKLLPKNNV)	0.0003866
QETFSDLWKLLPENNV E13L (QETFSDLWKLLPLNNV)	0.2781
QETFSDLWKLLPENNV E13M (QETFSDLWKLLPMNNV)	0.046
QETFSDLWKLLPENNV E13N (QETFSDLWKLLPNNNV)	0.01681
QETFSDLWKLLPENNV E13P (QETFSDLWKLLPPNNV)	0.00719
QETFSDLWKLLPENNV E13Q (QETFSDLWKLLPQNNV)	0.01136
QETFSDLWKLLPENNV E13R (QETFSDLWKLLPRNNV)	0.0003597
QETFSDLWKLLPENNV E13S (QETFSDLWKLLPSNNV)	0.003712
QETFSDLWKLLPENNV E13T (QETFSDLWKLLPTNNV)	0.004488
QETFSDLWKLLPENNV E13V (QETFSDLWKLLPVNNV)	0.02259
QETFSDLWKLLPENNV E13W (QETFSDLWKLLPWNNV)	0.1125
QETFSDLWKLLPENNV E13Y (QETFSDLWKLLPYNNV)	0.04256
QETFSDLWKLLPENNV F4A (QETASDLWKLLPENNV)	0
QETFSDLWKLLPENNV F4D (QETDSDLWKLLPENNV)	0
QETFSDLWKLLPENNV F4E (QETESDLWKLLPENNV)	0
QETFSDLWKLLPENNV F4F	0.9531
QETFSDLWKLLPENNV F4G (QETGSDLWKLLPENNV)	0
QETFSDLWKLLPENNV F4H (QETHSDLWKLLPENNV)	0.04685
QETFSDLWKLLPENNV F4I (QETISDLWKLLPENNV)	0
QETFSDLWKLLPENNV F4K (QETKSDLWKLLPENNV)	0

Sequence	DMS PSSM value (position-specific score of the amino acid at the position; each column sums to 1)
QETFSDLWKLLPENNV F4L (QETLSDLWKLLPENNV)	0
QETFSDLWKLLPENNV F4M (QETMSDLWKLLPENNV)	0
QETFSDLWKLLPENNV F4N (QETNSDLWKLLPENNV)	0
QETFSDLWKLLPENNV F4P (QETPSDLWKLLPENNV)	0
QETFSDLWKLLPENNV F4Q (QETQSDLWKLLPENNV)	0
QETFSDLWKLLPENNV F4R (QETRSDLWKLLPENNV)	0
QETFSDLWKLLPENNV F4S (QETSSDLWKLLPENNV)	0
QETFSDLWKLLPENNV F4T (QETTSDLWKLLPENNV)	0
QETFSDLWKLLPENNV F4V (QETVSDLWKLLPENNV)	0
QETFSDLWKLLPENNV F4W (QETWSDLWKLLPENNV)	0
QETFSDLWKLLPENNV F4Y (QETYSDLWKLLPENNV)	0
QETFSDLWKLLPENNV K9A (QETFSDLWALLPENNV)	0.0403
QETFSDLWKLLPENNV K9D (QETFSDLWDLLPENNV)	0.05448
QETFSDLWKLLPENNV K9E (QETFSDLWELLPENNV)	0.1149
QETFSDLWKLLPENNV K9F (QETFSDLWFLLPENNV)	0.01568
QETFSDLWKLLPENNV K9G (QETFSDLWGLLPENNV)	0.02788
QETFSDLWKLLPENNV K9H (QETFSDLWHLLPENNV)	0.0169
QETFSDLWKLLPENNV K9I (QETFSDLWILLPENNV)	0.03231
QETFSDLWKLLPENNV K9K	0.0477
QETFSDLWKLLPENNV K9L (QETFSDLWLLLPENNV)	0.227
QETFSDLWKLLPENNV K9M (QETFSDLWMLLPENNV)	0.1419

Sequence	DMS PSSM value (position-specific score of the amino acid at the position; each column sums to 1)
QETFSDLWKLLPENNV K9N (QETFSDLWNLLPENNV)	0.02398
QETFSDLWKLLPENNV K9P (QETFSDLWPLLPENNV)	0
QETFSDLWKLLPENNV K9Q (QETFSDLWQLLPENNV)	0.01819
QETFSDLWKLLPENNV K9R (QETFSDLWRLLPENNV)	0.02163
QETFSDLWKLLPENNV K9S (QETFSDLWSLLPENNV)	0.09136
QETFSDLWKLLPENNV K9T (QETFSDLWTLLPENNV)	0.0447
QETFSDLWKLLPENNV K9V (QETFSDLWVLLPENNV)	0.04267
QETFSDLWKLLPENNV K9W (QETFSDLWWLLPENNV)	0.009906
QETFSDLWKLLPENNV K9Y (QETFSDLWYLLPENNV)	0.02849
QETFSDLWKLLPENNV L7A (QETFSDAWKLLPENNV)	0
QETFSDLWKLLPENNV L7D (QETFSDDWKLLPENNV)	0
QETFSDLWKLLPENNV L7E (QETFSDEWKLLPENNV)	0
QETFSDLWKLLPENNV L7F (QETFSDFWKLLPENNV)	0.117
QETFSDLWKLLPENNV L7G (QETFSDGWKLLPENNV)	0
QETFSDLWKLLPENNV L7H (QETFSDHWKLLPENNV)	0.176
QETFSDLWKLLPENNV L7I (QETFSDIWKLLPENNV)	0.01169
QETFSDLWKLLPENNV L7K (QETFSDKWKLLPENNV)	0
QETFSDLWKLLPENNV L7L	0.1836
